Results as given in patent US4757079A, “Anti-hypertensive piperidine compounds” (Dynamac Corporaton, priority 1986, dated 1988).
Counter-ions that a name gives are not always drawn.

System: release of acetylcholine
Settings: after 17.5 mg/L; in the presence of DFP

CN1CCC(/C=C/c2cccc3ccccc23)CC1 [B-120, 1-methyl-4-(1-naphthylvinyl)piperidine hydrochloride]
acetylcholine release after removal of the B-120: returned to normal after removal of the B-120 indicating that the block was reversible
